Measured affinities in a library of Ab-14 light chain variants

The target is the same throughout: PDVDLGDISGINAS, from the HR2 region of SARS-CoV-2 spike.

Each scFv is VH, the linker GGGGSGGGGSGGGGS, VL, as in the parent Ab-14, and differs from it in the CDRs of the light chain only.
VH: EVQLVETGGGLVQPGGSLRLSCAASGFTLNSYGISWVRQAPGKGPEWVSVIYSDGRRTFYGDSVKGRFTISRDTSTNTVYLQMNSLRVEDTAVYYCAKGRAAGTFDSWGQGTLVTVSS
VL: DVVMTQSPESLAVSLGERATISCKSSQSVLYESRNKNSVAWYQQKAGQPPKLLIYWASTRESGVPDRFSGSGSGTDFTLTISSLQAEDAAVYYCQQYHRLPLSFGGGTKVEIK

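Designed CDR sequences, proposed from the first random library and measured here. Group labels follow the data file (Ctrl: baseline library sampled from a position-specific scoring matrix, with some repeated check sequences; Rand: our label for a block that the file lists under HC and that is probably the random mutants of the ten best first-round binders; En: ensemble of fine-tuned language models; GP: Gaussian process model; GPLM: also part of the Gaussian process libraries; HC: hill climbing; Gen: genetic algorithm; Gibbs: Gibbs sampling; a sequence that several methods proposed may carry one label only). The assay is AlphaSeq: two haploid yeast populations carry antibody and antigen on their surface. Binding brings cells together so that they mate, and sequencing counts the barcode pairs among the diploids. The ratio of observed to expected reads was calibrated, replicate by replicate, on BCL2-family standards whose Kd was known from biolayer interferometry. Mating was done six times.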

The parent's light chain CDRs are KSSQSVLYESRNKNSVA, WASTRES, QQYHRLPLS; each variant's own CDRs replace them letter for letter.
Scale: log10 of Kd in nM, estimated from mating counts; low values are strong binders.
Averages over replicates are reported, and they cover detected replicates only.
Where no diploid with the target was found in any replicate, the entry reads "nd": below detection, most likely a poor binder, though not proof of it.

CDR-L1,CDR-L2,CDR-L3,group,mean log10 Kd (nM),detected,empty controls
KVRQSTLYESRNKNSVA,WASTRES,QQYHRLPLM,GP_HC,0.81,6/6,1/18
KLSQEYCYGDRNKNSVA,QASTREQ,QQYHRLPLS,GP_Gibbs,0.25,6/6,0/18
NMRGGEGEIAQHGYNIA,GVDLRAA,QQYARLPLH,En_Gibbs,1.16,6/6,2/18
KLSQSVLYEWRNKNSVA,GAVRREA,QQYHRLPLS,Ctrl,1.24,6/6,1/18
KLSQSVLYESRNKNSVA,NASQRES,QQYHRLPLM,GP_Gen,-0.24,6/6,1/18
KLSQSTLYESRNKNSVA,QASTRES,QQYHRLPLS,GP_Gen,0.08,6/6,1/18
KSSQSVLYFERNKNSIA,WASTRES,QMYHRLTLS,Ctrl,nd,0/6,0/18
KSEQSVPYESRNKNSVA,NASTRES,QQYHRLPLS,GP_Gen,1.20,6/6,0/18
HSSPSVLYESRNTNSVA,NASTRES,QQYHRLPLS,GP_HC,0.65,6/6,0/18
KISQMIRVGSTHSNSIA,EEVTRMK,QQYHRLPLS,En_Gen,0.99,6/6,2/18
KVSQSVLYESRNKNSVA,AASTRES,QQYHRLPLS,Ctrl+GP_Gen,0.43,12/12,2/36
KIQQSVLPESRNKNSVA,WASTRES,QQYHRLPLS,Ctrl,0.79,6/6,1/18
KSSQSVLYESRNPNSVA,WASKRAS,QAYHRLPLS,Ctrl,1.89,6/6,2/18
TLVQSVMGGSRAKNSVA,NAETRYD,QHYHRLPLS,En_HC,0.36,6/6,1/18
KLQWQQYGENQQEAAIA,NETTVAQ,QQYFKLPLT,En_Gibbs,0.93,6/6,1/18
MISQLFMYGSRNYNSVA,QATTRES,QQYDRLPLI,En_HC,1.14,6/6,0/18
KIGGVTNGISRNKNSVA,EQSTRED,QQYDRLPLS,En_HC,0.58,6/6,1/18
KLSGSVCMLQRNDNSVA,DASTRES,QQYHRLPLS,GP_Gibbs,0.66,6/6,0/18
KLSSHEQHGTAQNSAMA,NAQVSTQ,QQYSHLPLS,En_Gibbs,0.52,6/6,0/18
KLSGSWLYESRNKNNVA,GASTRES,QQYHRLPLS,GP_Gen,-0.30,6/6,1/18
KFSQMVNSMSVSHSAVA,EMSTRED,QQYNRLPLS,En_Gen,0.19,6/6,0/18
KSSQSVWYESRNKNSVA,EASTRES,QQYHRLPLS,GP_Gen,0.71,6/6,0/18
KLSQSGLTESRNKNSVA,WASTRRS,QQYHRLPLS,Ctrl,1.70,6/6,0/18
SMSNAQINPDVWKNSIA,DAEHVEY,QQYSRLPLT,En_Gibbs,0.35,6/6,0/18
MISQLYNMGQFAINSVA,QASERSN,QQYDRLPLA,En_Gen,1.43,2/6,0/18
IISQSFLGEQHNKNSVA,QTSERGS,QQYDRLPLS,En_HC,0.13,6/6,2/18
KSSQSVLNESRNKNSVA,QASTRES,QQYHRLPLS,Ctrl,1.49,6/6,0/18
KSSQSVLYESRNKSAVA,SASTRES,QQYHRLPLS,Ctrl,2.59,5/6,1/18
KFSGSWLYESRNKNSVA,NASTRES,QQYRRLPLS,GP_Gibbs,-0.30,6/6,1/18
KLSWTCTTDLNQMHSVA,ESEVAVD,QQYAHLPLT,En_Gibbs,1.47,5/6,1/18
KVQQSHLYESRNKNSVA,NASTRLS,QQYHRLPLS,GP_Gen,0.08,6/6,1/18
SLSHGSEGSKNEEASIA,STELGMA,QQYARLPLA,En_Gibbs,2.34,1/6,0/18
KAQQSNEYESRNKNSVA,NASQRED,QQYHRLPLS,GP_Gibbs,0.21,6/6,6/18
KFSQSVLYESRTKNSVA,NASTRES,QQYHILPLS,Rand,-0.01,6/6,2/18
IVSQLMLWGWHAKNSIA,EAQTRVN,QQYDRLPLI,En_Gen,1.95,2/6,0/18
KISQMVKVGMTHGNSIA,EEQTRAK,QQYHRLPLS,En_Gen,1.55,6/6,0/18
HMSMLTLQGMRARNSVA,QMTTREN,QQYDRLPLA,En_Gen,0.25,6/6,0/18
KQSQSILYESRNKNSVA,DASTRES,QQYHRLPLS,GPLM_HC,-0.14,6/6,1/18
VMQMDNDRANDATYAIA,DVTMREK,QQYNRLPLM,En_Gibbs,1.85,5/6,0/18
KLQQSVLYESRNKNSVA,NASQRCS,QQYHRLPLS,GP_Gen,-0.02,6/6,5/18
KSSQSVLYESRNDNSLA,HESTREL,QQYHRLPLS,Ctrl,2.22,3/6,0/18
KMSQSVLYESRNKNSVA,SASTRES,DQYHRLPLS,Ctrl,1.52,4/6,0/18
YMSGQISGGWNQQEAIA,EVTYKED,QQYYQLPLS,En_Gibbs,nd,0/6,0/18
NVGQSMDGESRNKNSVA,HQSTRED,QHYHRLPLS,En_HC,1.92,6/6,3/18
KSSQSVLYESNNKNSVA,YASTRES,QQYHRLPLS,Ctrl,1.30,6/6,1/18
TISQMFLGESRNRNSVA,QASTREN,QSYDRLPLS,En_HC,1.11,6/6,4/18
KLSQAVNVTGKNKNSVA,ELSFREK,QQYDRLPLS,En_HC,2.18,4/6,1/18
KLEQSELYESRNKNSVA,NASLRES,QQYHRLPLS,GP_Gen,0.01,6/6,1/18
KLQFSWLYESRNKNSVA,NASQRES,QQYHRLPLS,GP_Gen,-0.25,6/6,1/18
KQSFSVLNESRNKNSVA,WASTRES,QQYPRLPLS,Ctrl,3.05,1/6,1/18
KSSQSWLYESRNFNSVA,GASTRES,QQYHRLPLS,GP_HC,-0.17,6/6,3/18
KLSQSYEYESRNKNSVA,NASTRES,QQYHRLPLS,GP_Gen,-0.50,6/6,2/18

7 of these entries, quoted again:

| CDR-L1 | CDR-L2 | CDR-L3 | group | mean log10 Kd (nM) | detected | empty controls |
|---|---|---|---|---|---|---|
| KSSQSVWYESRNKNSVA | EASTRES | QQYHRLPLS | GP_Gen | 0.71 | 6/6 | 0/18 |
| KLSQSGLTESRNKNSVA | WASTRRS | QQYHRLPLS | Ctrl | 1.70 | 6/6 | 0/18 |
| KLSSHEQHGTAQNSAMA | NAQVSTQ | QQYSHLPLS | En_Gibbs | 0.52 | 6/6 | 0/18 |
| KLEQSELYESRNKNSVA | NASLRES | QQYHRLPLS | GP_Gen | 0.01 | 6/6 | 1/18 |
| TISQMFLGESRNRNSVA | QASTREN | QSYDRLPLS | En_HC | 1.11 | 6/6 | 4/18 |
| KLSGSWLYESRNKNNVA | GASTRES | QQYHRLPLS | GP_Gen | -0.30 | 6/6 | 1/18 |
| HMSMLTLQGMRARNSVA | QMTTREN | QQYDRLPLA | En_Gen | 0.25 | 6/6 | 0/18 |

In the paper, a design with two or fewer of six values counts as a poor binder.
Where one sequence has several entries in the source, the replicates are pooled.
Three control strains display no target. For all light chain designs, 4% of the pairings with them gave a signal, with a median of 2.64 and one signal in twenty below 1.59, so weak values seen in few replicates may be background. The control count says in how many pairings with the empty strains this scFv gave a signal.
Values of this round are not directly comparable with the first-round values of the same sequences.
The parent sequence was in this pool as ten entries: three were never detected, three once, and four in most replicates, with averages from 0.34 to 2.37.

The measurements come from Li et al. 2023 (doi:10.1038/s41467-023-39022-2) through the FLAb antibody collection.